US20070248996A1, “Modulators of beta-amyloid peptide aggregation comprising D-amino acids” (Paraecis Pharmaceuticals, Inc., priority 1995, published 2007)

Assay: Brain uptake assay (Oldendorf technique, brain uptake index)
Settings: percentage of the freely diffusable reference water; carotid bolus, 15 seconds; 14C-labelled; vehicle 50 mM cyclodextrin in 75% PBS

cholyl-D-Leu-D-Val-D-Phe-phenethylamide [PPI-494]
Brain Uptake Index (± SEM): 4.78 ± 0.36
